Earlier results on one compound are cited in paper PMC2359721 (British Journal of Cancer, 2007).

The series relates to A431, NIH-3T3-HER2, NCI-N87 and BT-474. The following applies: cell lines such as A431, NIH-3T3-HER2, NCI-N87, BT-474; ref Boehringer-Ingelheim, data on file; cited from earlier work.

On to `CN(C)C/C=C/C(=O)Nc1cc2c(Nc3ccc(F)c(Cl)c3)ncnc2cc1O[C@H]1CCOC1` [BIBW 2992], for which the cellular proliferation entry is listed as “inhibits”.
